Our source for the Ratio values is ChEMBL document CHEMBL2069301, “Exploration of the structure-activity relationship of the diaryl anilide class of ligands for translocator protein--potential novel positron emitting tomography imaging agents” (Bioorg Med Chem Lett, 2012).

In data set [1] the test system is Striatum. The experiment in a line: Ratio of biodistribution in olfactory bulbs to striatum of in naive Wistar rat at 1 to 3 MBq, iv using [18F] labeled compound measured 30 mins post dose. It is filed as ADME, organism-based. The following applies: in vivo, 0.5 h.
The test system of data set [2] is Striatum. The data set can be described thus: Ratio of biodistribution in striatum at 2 mins post dose to biodistribution in striatum post 30 mins in naive Wistar rat at 1 to 3 MBq, iv using [18F] labeled compound. The format is ADME, organism-based. The conditions noted are these: in vivo.

Take `COc1ccc(OC)c(CN(C(=O)C[18F])c2ccccc2Oc2ccccc2)c1`: the results for the Ratio with Striatum [1] and with Striatum [2] were 3.5 and 4.64, respectively.
